Measured values as given in patent US9480726B2, “Leukotoxin E/D as a new anti-inflammatory agent and microbicide” (New York University, priority 2011, dated 2016).

Columns and labels:
[1] = system: Primary human T lymphocytes from CCR5^+ donor; experiment: LukE/D intoxication of primary T lymphocytes, viability by flow cytometry; details: LukE/D vs. LukE/D+MVC
Source text: (§1) Cells were then stained with an anti-CCR5 antibody and a viability dye prior analysis by flow cytometry.
If CCR5 is the receptor of LukE/D, then primary host cells that their surfaces are decorated with CCR5 (e.g., T lymphocytes, macrophages, natural killer cells, dendritic cells, etc.) will be susceptible to LukE/D mediated cell death. To investigate this in more detail, primary human peripheral blood mononuclear cells (PBMC) were isolated from a wild type CCR5 (CCR5^+) donor and a Δ32CCR5 (CCR5^−) donor and the T lymphocytes expanded followed by intoxication with LukE/D and the viability of the cells determined by flow cytometry.

[2] = system: primary human dendritic cells; experiment: LukE/D cytotoxicity towards primary phagocytes, percent death by flow cytometry; details: LukE/D vs. LukE/D+MVC
Method: as §1
(§2) In addition to T lymphocytes, the cytotoxic activity of LukE/D towards primary human macrophages and dendritic cells was also evaluated.

[3] = system: primary human macrophages; experiment: as above; details: LukE/D vs. LukE/D+MVC
Method: as §1, §2

CCR5^+ Jurkat cells = experiment: Blocking of LukE/D cytotoxicity by CCR5 antagonists, antibodies and ligands, CellTiter; details: CCR5^+ Jurkat preincubated 30 minutes, then LukE/D, read 1 hour post-intoxication

For Maraviroc [reference compound], which “neutralization of LukE/D cytotoxicity” value [1] is on record?
Its value is “potently neutralized”.

And the “neutralization of LukE/D cytotoxic effect” value [2]?
Its value is “potently neutralized”.

What about the “neutralization of LukE/D cytotoxic effect” value [3] of the same substance?
The value was “potently neutralized”.

And the “blocking of LukE/D mediated cytotoxicity” value (CCR5^+ Jurkat cells)?
The value was “potently blocked”.
